Assay results from patent US10098870B2 (JENKEM TECHNOLOGY CO., LTD. (BEIJING), priority 2013, dated 2018).

Legend:
[1] = Body weight, survival and tolerance of mice bearing Hep3B (Example 7); type: in vivo, mouse; settings: 15 mg/kg i.v. (QD×5)×2W, mean ± SE
[2] = Body weight, survival and tolerance of mice bearing plc/prf/5 (Example 6); type: in vivo, nude mouse; settings: day 13 after inoculation; 25 mg/kg i.v. QD×5; mean ± SE
Source text: Wherein QW×4W represents intravenous injection once a week for 4 weeks, BIW×4W represents intravenous injection […] for 4 weeks, the same below. (2) Experimental Results

In the case of O=c1[nH]cc(F)c(=O)[nH]1 [5-FU, reference compound], the “Body weight of animal” value ([1]; day 16 after inoculation) is reported as 20.7 ± 0.4 g, the “Body weight of animal” value ([1]; day 44 after inoculation) is reported as 18.4 ± 0.3 g and the “Body weight of animal” value [2] is reported as 18.4 ± 0.5 g.
